Source: article PMC5681660 (2017)

How the values were obtained:
[1] = molecular target: T1, human NTCP (Homo sapiens, UniProt Q14973); experiment: Screening taurocholate uptake assay (96-well, [14C]taurocholate, 10 µM drug)
T1 sequence (Q14973 1-349): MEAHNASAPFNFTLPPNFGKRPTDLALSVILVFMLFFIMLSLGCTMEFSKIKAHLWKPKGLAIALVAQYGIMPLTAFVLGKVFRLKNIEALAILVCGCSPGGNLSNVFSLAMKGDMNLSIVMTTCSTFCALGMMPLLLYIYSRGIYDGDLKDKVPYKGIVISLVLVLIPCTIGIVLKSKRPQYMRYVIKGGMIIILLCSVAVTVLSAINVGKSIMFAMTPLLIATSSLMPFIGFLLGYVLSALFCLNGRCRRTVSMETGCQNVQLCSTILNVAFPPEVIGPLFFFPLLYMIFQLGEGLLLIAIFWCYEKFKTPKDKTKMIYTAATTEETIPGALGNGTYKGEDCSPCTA

[2] = molecular target: T1, human NTCP; experiment: Screening fluorescent competitive Myrcludex B-FITC binding assay (96-well, 10 µM drug)
[3] = tested on: HBV; details: HepaRG cells infected with HBV; supernatant day 7 to 10
[4] = TRIAC 1000 mg, with absorption 67%; ref 7 (supplement); cited from earlier work

Row | Molecule | Ranking score [1] | B-score binding assay [2] | B-score functional assay [1] | also measured
1 | COc1cc2c(c(OC)c1OC)-c1ccc(OC)c(=O)cc1[C@@H](NC(C)=O)CC2 [Colchicine] | 202.531 | -1.859 |  | 
2 | CNCCC(Oc1ccc(C(F)(F)F)cc1)c1ccccc1 (stereo not drawn) [Fluoxetine hydrochloride] |  |  | -1.433 | 
3 | O=C(O)Cc1cc(I)c(Oc2ccc(O)c(I)c2)c(I)c1 [TRIAC, 3,3′,5-Triiodothyroacetic acid] |  |  |  | concentration effective in reducing HBsAg [3]: ≥ 50 µM; Expected serum concentration [4]: 1000 mg ? ~215 µM (with absorption 67%)^7
4 | Colistin sulfate |  |  |  | Ranking score ([1]; combined ranking of functional and binding screening assays): 524.583
5 | Thimerosal | 580.436 | -0.543 | 0.511 | 

Counter-ions that a name gives are not always drawn. Like-named read-outs stand apart in the source and are kept apart here.
